Measurements from patent US4900538A, “Composition for increasing potency of adriamycin or daunomycin and reducing toxicities thereof” (Suntory Limited, priority 1982, dated 1990).

Tests used:
[1] = tested on: strains used (Salmonella typhimurium, Escherichia coli); experiment: Growth / survival of the strains used in the mutagenicity tests; assay type: cell-based; settings: explains apparent reduction of mutagenicity at high levels
[2] = tested on: L1210 cells; experiment: In vivo carcinostatic activity against transplanted L1210 cells (ILS, survivors); settings: i.p.

COc1cccc2c1C(=O)c1c(O)c3c(c(O)c1C2=O)C[C@@](O)(C(=O)CO)C[C@@H]3O[C@H]1C[C@H](N)[C@H](O)[C@H](C)O1 [adriamycin]
Cellular toxicity [1]: have cellular toxicity
ILS (index of life spread to the control group) ([2]; adriamycin 1 mg/kg/day × 5, sodium hydrogensulfite 0): > 194%
ILS (index of life spread to the control group) ([2]; adriamycin 3 mg/kg/day × 5, sodium hydrogensulfite 0): 71%
